Data on 1 substance can be found in PMC8224742, “Evaluation of 1β-Hydroxylation of Deoxycholic Acid as a Non-Invasive Urinary Biomarker of CYP3A Activity in the Assessment of Inhibition-Based Drug–Drug Interaction in Healthy Volunteers” (Journal of Personalized Medicine, 2021).

The data set has as its system CYP3A. The settings on record: in vivo.

For the substance “1β-hydroxy-deoxycholic acid/total deoxycholic acid ratio [1β-OH-DCA/ToDCA]”, the “t1/2 of urinary 1β-OH-DCA/ToDCA UMR, recovery curve” value was 101 h. Under “human, 100 mg”, the “half-life of urinary 1β-OH-DCA/ToDCA” value is given as “four” and the “t1/2 of urinary 1β-OH-DCA/ToDCA UMR, elimination curve” value came out at 96 h.
